Data: publication PMC11368737, “Effects of three flavonoids on the metabolism of lenvatinib” (Frontiers in Pharmacology, 2024)

Tests used:
[1] = system: lenvatinib metabolism (M1 formation) in RLM; test: Inhibition of lenvatinib metabolism (M1 formation) by flavonoids in rat liver microsomes; conditions: probe lenvatinib 23.5 μM
[2] = Michaelis-Menten kinetics of lenvatinib in RLM; assay type: in vitro ADME; conditions: rat, rat liver microsomes; 2–100 μM lenvatinib, 0.3 mg/mL RLM

Row | SMILES | IC50 at 30 min [1] [µM] | Km at 30 min [2] [µM]
1 | O=c1c(O)c(-c2ccc(O)c(O)c2)oc2cc(O)ccc12 [fisetin] | 21.8 ± 0.86 | –
2 | COc1cc2nccc(Oc3ccc(NC(=O)NC4CC4)c(Cl)c3)c2cc1C(N)=O [lenvatinib, Lenvatinib] | – | 23.5 ± 2.17
3 | O=c1cc(-c2ccc(O)c(O)c2)oc2cc(O)cc(O)c12 [luteolin] | 11.4 ± 0.46 | –
